Test: Maximum tolerated dose in nude mice

Cn1c(=O)c2c(ncn2C)n(C)c1=O [Caffeine]
maximum tolerated dose (MTD): 150 mg/kg

From US20070172425A1, “Testing cell cycle regulation effect of a compound using a hollow fibre cell implant” (priority 2003, published 2007)
